Screening results deposited in PubChem BioAssay by National Center for Advancing Translational Sciences (NCATS).
The list is not random: actives were taken first. Their share in the collection is about 1.3%.
ALOX12 inh = inhibitors of human 12S-lipoxygenase ALOX12; purified 12hLO, xylenol orange hydroperoxide absorbance; P18054; Potency, µM (highest dose often 108 µM), without a hit: at the highest dose activity change, negative = inhibition, hits mostly inhibitors; hit rate 1.1% among 580,000; note: potency is the fitted concentration of half-maximal effect; % is set by controls: 0 for no effect and ±100 for the full control effect
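Purified human 12hLO (150 nM final) in 25 mM Hepes, 0.01% Triton X-100, pH 7.0 was preincubated 15 min at room temperature with compound. Then 40 uM arachidonic acid was added, 30 min. Hydroperoxide was read by Fe-XO absorbance ratio 573/405 nm.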
miR-21 reporter = raises the signal of a miR-21 reporter; 340,000 tested, under 10 active; HeLa miR-21 FLuc reporter, luciferase, 48 h; Potency, µM (series often up to 38.3 µM), for inactives: at the highest dose reporter change, positive = more light; active = well fitted rising curve with a large enough effect; inconclusive = small, poorly fitted or top-dose-only effect; inactive = no such curve, though single readings can be large or run the other way;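 further: % of control where 0% means no effect; miR-21 action dims this reporter so a rising signal means less miR-21 action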
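Using DMEM plus 10% FBS, HeLa miR-21-FLuc cells are incubated with test compounds (final up to about 40uM) for 48 hours; firefly luciferase signal is then imaged following reagent-mediated lysis.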
ERG-DNA inh = inhibitors of human ERG Ets domain-DNA interaction; fluorescence polarization, His-ERG Ets domain / labelled DNA; P11308; AID 624246; hit rate 0.028% among 370,000; Potency, µM (series often up to 76.9 µM), without a hit: at the top dose FP activity, negative = inhibition, actives largely listed as inhibitors; active = well fitted inhibition curve with a large enough effect in the polarisation, with a control signal flat; inconclusive = small, poorly fitted or top-dose-only effect, or effect the other way, or a change in a side signal; inactive = no such curve, though single readings can be large or run the other way; the % refers to the polarisation;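 note: polarization taken with two DNA probes labelled with fluorescein and Texas red; potency is the fitted concentration of half-maximal effect; % of control where 0% means no effect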
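His-tagged ERG Ets domain (1 uM in the protein solution; 300mM KCl, 50mM Tris-HCl, 1mM EDTA, 1mM DTT, pH 7.5) received compound, then a probe mix of 5 nM fluorescein-DNA and 100nM Texas-615-DNA. Fluorescence polarization was read for both dyes.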
PTHR1 ag = PTHR1 (human) receptor agonism | Q03431 | HEK293 GP2 PTHR1 cells, GloSensor cAMP luminescence, 1 h | Potency, µM (series often up to 115 µM), without a hit: at the top dose activation, most hits filed as activators | hit rate 0.075% among 410,000 | AID 743266; note: potency is the fitted concentration of half-maximal effect; nearly all actives have a fitted effect of over 55% in size
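HEK-293-derived GP2 cells expressing PTHR1 and a GloSensor cAMP reporter, 3,000/well, plated overnight, given luciferin plus IBMX (each 0.5 mM as added) for 1 h at 37 °C, then compound for 1 h at 37 °C. Luminescence was read after 15 min at room temperature.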
PINK1 expr mod = changes PINK1 expression; Potency, µM (series often up to 76.6 µM), for the others: at the top dose activation (PINK1 increase), actives largely listed as activators; hit rate 0.2% among 410,000; AID 624263; PINK1 immunofluorescence, high-content cytometry, 24 h; active = well fitted activation curve with a large enough effect; inconclusive = small, poorly fitted or top-dose-only effect; cell line not stated here; note: potency is the fitted concentration of half-maximal effect; % of control where 0% means no effect; nearly all actives have a fitted effect of over 65% in size
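Measures PINK1 amount and localization on or inside mitochondria by immunofluorescence. Stable cells get compounds at 5 concentrations for 24 hours before fixation and staining; CCCP controls included.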
Giardia killer = kills Giardia lamblia | Giardia lamblia trophozoite viability | hit rate 0.15% among 340,000 | activity change, % at 7.66 µM, hits read low | AID 540267; in the data active = activity change below about -80%; inconclusive = between about -30% and that limit;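 note: parasites exposed to compound for two days anaerobically before the ATP read; % is set by controls: 0 for no effect and ±100 for the full control effect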
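Killing of trophozoites was scored by loss of ATP luminescence after a 48 hrs anaerobic exposure to compounds at 37 deg C, using 100 cells per well.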
An asterisk follows results filed as active; i = inactive; ? = inconclusive; . = no result given; ! = not active in a repeat; [ ] = another dose, or the depositor's remark. Unless noted, calls come from the whole dose curve; as a rule, active = well fitted curve in the direction sought with a large enough effect; inconclusive = small, poorly fitted or top-dose-only effect, or another doubt; inactive = no such curve, though single readings can be large; an effect the other way counts as inactive or inconclusive.

1. COc1ccc(C(=O)NC2CCCN(c3cc(-c4ccccc4)[nH]n3)C2)cc1F (stereo not given)
2. CCN(CC)C1=NC(=O)C(CC(=O)Nc2cccc(C(=O)NCCc3ccccc3OC)c2)S1 (stereo not given)
3. CC(C)CCNC(=O)C1CCC(CNc2c(N3CCCC3)c(=O)c2=O)CC1 (stereo not given)
4. CNc1nc(-c2ccccc2)[n+](-c2ccc(C)cc2)s1
5. CC(C)[C@H](NC(=O)C1CCCC1)C(=O)N1CCC[C@H]1C(=O)NCc1ccccc1

assay / compound	1	2	3	4	5
ALOX12 inh	12.7%	1.12µM*	-3.0%	7.08µM*	-2.9%
miR-21 reporter	.	.	-0.6%	-30.7%	.
ERG-DNA inh	.	.	-13.3%	-9.1%	.
PTHR1 ag	.	.	-9.0%	i	.
PINK1 expr mod	.	.	-0.2%	21.0%	.
Giardia killer	.	.	3.1	3.2	.

The closing 2 compounds of the part above open the next one:
4. CNc1nc(-c2ccccc2)[n+](-c2ccc(C)cc2)s1
5. CC(C)[C@H](NC(=O)C1CCCC1)C(=O)N1CCC[C@H]1C(=O)NCc1ccccc1
6. O=C(c1cnc(Cc2c[nH]c3ccccc23)c(I)c1)N1CCOCC1
7. O=C(c1cnc(Cc2c[nH]c3ccccc23)c(I)c1)N1CCN(Cc2ccccc2)CC1
8. CC(C)N(CCC(=O)c1ccc2ccccc2c1)Cc1ccccc1
9. CC1(C)C=Cc2c(c3c(c4c(=O)c(-c5ccc(O)cc5)coc24)OC(C)(C)CC3)O1
10. COc1cc(C2NC(=S)NC(c3ccccc3)=C2C(C)=O)ccc1O (stereo not given)

assay / compound	4	5	6	7	8	9	10
ALOX12 inh	7.08µM*	-2.9%	20µM*	-7.6%	35.5µM*!	?	-21.4%
miR-21 reporter	-30.7%	.	.	.	.	-6.4%	0.3%
ERG-DNA inh	-9.1%	.	.	.	-7.6%	-2.9%	11.8%
PTHR1 ag	i	.	.	.	-94.4%	-21.8%	i
PINK1 expr mod	21.0%	.	.	.	-0.8%	-1.3%	-0.5%
Giardia killer	3.2	.	.	.	0.6	4.5	-4.7

11. CCOC(=O)C1=C(c2ccccc2)NC(=S)NC1c1cccc([N+](=O)[O-])c1 (stereo not given)
12. CC1=C(C(=O)Nc2ccccc2)C(c2ccc(C(C)(C)C)cc2)NC(=S)N1 (stereo not given)
13. Cc1ccc(NC(=O)C2=C(c3ccccc3)NC(=S)NC2c2ccc(C(C)(C)C)cc2)cc1 (stereo not given)
14. CCCOc1ccc(C2NC(=S)NC(c3ccccc3)=C2C(=O)Nc2ccc(C)cc2)cc1OC (stereo not given)
15. CCOC(=O)C1=C(c2ccccc2)NC(=S)NC1c1cc([N+](=O)[O-])ccc1OC (stereo not given)

assay / compound	11	12	13	14	15
ALOX12 inh	-14.6%	39.8µM*	14.1µM*	31.6µM*	39.8µM*
miR-21 reporter	-14.2%	.	.	9.4%	-9.3%
ERG-DNA inh	-12.9%	.	.	-5.0%	-16.4%
PTHR1 ag	-11.8%	.	.	0.0%	i
PINK1 expr mod	4.6%	.	.	0.3%	0.3%
Giardia killer	2.9	.	.	8.6	-18.4

16. CCOc1cc(C2NC(=S)NC(C)=C2C(=O)Nc2ccccc2)ccc1O (stereo not given)
17. COCC(=O)NCCc1noc(-c2cccnc2)n1
18. COc1ccc(NC(=O)Cn2nc(C)c([N+](=O)[O-])c2C)cn1
19. O=C(Cn1c(=O)n(-c2ccc(Cl)cc2)c(=O)c2c3c(sc21)CCC3)c1ccc(F)cc1
20. COc1ccc(C2=NN(c3nc(-c4ccccc4)c(CC(=O)O)s3)C(c3ccco3)C2)cc1 (stereo not given)

assay / compound	16	17	18	19	20
ALOX12 inh	?	-3.2%	-8.6%	?	11.2µM*
miR-21 reporter	0.2%	.	-1.7%	-1.5%	-18.2%
ERG-DNA inh	1.0%	.	-7.8%	-1.7%	-0.9%
PTHR1 ag	i	.	i	i	-13.3%
PINK1 expr mod	-1.0%	.	1.4%	5.6%	1.1%
Giardia killer	3.0	.	-7.9	.	-14.7

21. Cc1nc(N2N=C(c3ccc(Cl)cc3)CC2c2ccco2)sc1C(=O)N(C)C (stereo not given)
22. COc1ccc(C2C=C(c3ccc(Cl)cc3)Nc3nc(-c4ccc(Cl)cc4)nn32)cc1 (stereo not given)
23. COc1ccc(C2=CC(c3c(F)cccc3Cl)n3nnnc3N2)cc1 (stereo not given)
24. Cc1ccc(C2=CC(c3ccc(Cl)cc3)n3nc(-c4ccc(C)cc4)nc3N2)cc1 (stereo not given)
25. Clc1ccc(C2C=C(c3ccccc3)Nc3nnnn32)c(Cl)c1 (stereo not given)

assay / compound	21	22	23	24	25
ALOX12 inh	?	5.62µM*	39.8µM*	?	17.8µM*
miR-21 reporter	-26.9%	?	.	25.0%	.
ERG-DNA inh	1.4%	-0.4%	.	-3.0%	.
PTHR1 ag	i	i	.	i	.
PINK1 expr mod	3.7%	15.8µM*	.	-0.4%	.
Giardia killer	-8.7	.	.	.	.

PINK1 expr mod: hit marks shown above.
| # | compound | ALOX12 inh | miR-21 reporter | ERG-DNA inh | PTHR1 ag | PINK1 expr mod |
| --- | --- | --- | --- | --- | --- | --- |
| 22 | COc1ccc(C2C=C(c3ccc(Cl)cc3)Nc3nc(-c4ccc(Cl)cc4)nn32)cc1 (stereo not given) | 5.62µM* | ? | -0.4% | i | 15.8µM* |

Additional records follow.
26. CCCC(NC(=O)COc1cc2c(c3oc(=O)cc(C)c13)CCC(C)(C)O2)C(=O)O (stereo not given)
27. CN(C(=O)c1c[nH]c2ccc(S(=O)(=O)Nc3cccc(C(F)(F)F)c3)cc2c1=O)C1CCCCC1
28. Cc1cc(Br)ccc1NC(=O)CN(C)C(=O)C1CCN(C(=O)c2ccc(F)cc2)CC1
29. COc1ccc2c(c1)CCN=C2C[C@H]1CN(C(=O)c2ccc(C#N)cc2)CC[C@H]1CC(=O)O
30. COc1ccc2c(c1)CCN=C2C[C@H]1CN(C(=O)c2ccccc2)CC[C@H]1CC(=O)O

assay / compound	26	27	28	29	30
ALOX12 inh	0.0%	?	-27.3%	63.1µM*	-4.4%[176 µM]
miR-21 reporter	0.6%	-0.2%	.	.	.
ERG-DNA inh	6.2%	-0.1%	-8.7%	.	.
PTHR1 ag	i	i	i	.	.
PINK1 expr mod	-3.2%	0.0%	1.6%	.	.
Giardia killer	10.5	.	-19.4	.	.

31. CN1c2cc(C(=O)NC3CCCCCC3)ccc2C(=O)N2CCCCCC21 (stereo not given)
32. CCCc1cc(CN2CCOCC2)c(O)c(CN2CCOCC2)c1O
33. O=C(Cn1nc2c(cc1=O)CCCC2)NC1CC1
34. O=C(Cn1ncc2ccccc2c1=O)NC1CCCc2c1[nH]c1ccccc21 (stereo not given)
35. O=C(Cn1nc2c(cc1=O)CCCC2)NC1CCCc2c1[nH]c1ccccc21 (stereo not given)

assay / compound	31	32	33	34	35
ALOX12 inh	12.0%	35.5µM*	37.2%	28.2µM*	35.5µM*
miR-21 reporter	.	.	.	.	.
ERG-DNA inh	.	-8.2%	.	.	.
PTHR1 ag	.	-5.6%	.	.	.
PINK1 expr mod	.	-5.0%	.	.	.
Giardia killer	.	0.3	.	.	.

36. COc1ccc2cnn(CC(=O)NC3CCCc4c3[nH]c3ccccc43)c(=O)c2c1OC (stereo not given)
37. O=C(Cn1ncc2ccccc2c1=O)NC1CCCCC1
38. O=C(Cc1n[nH]c(=O)c2ccccc12)NC1CCCc2c1[nH]c1ccccc21 (stereo not given)
39. COc1ccc(N2C(=O)CSC23C(=O)N(Cc2cccc(C(F)(F)F)c2)c2ccccc23)cc1 (stereo not given)
40. N#CC1=C(SCC(=O)Nc2cccc3cccnc23)NC(=O)C(C#N)C12CCCCC2 (stereo not given)
41. O=C(NCCc1c[nH]c2ccccc12)c1ccccc1Oc1ccccc1
42. COC(=O)C(Cc1ccccc1)NC(=O)COc1ccc(C(C)(C)C)cc1 (stereo not given)
43. COc1ccc(C2(C(=O)NC3CCCc4c3[nH]c3c(Cl)cccc43)CCOCC2)cc1 (stereo not given)

assay / compound	36	37	38	39	40	41	42	43
ALOX12 inh	39.8µM*	-22.2%	44.7µM*	2.5%	10.2%	-28.8%	0.0%	-15.0%
miR-21 reporter	.	.	.	3.0%	-2.8%	.	13.1%	.
ERG-DNA inh	.	.	.	-4.4%	-2.3%	.	7.7%	.
PTHR1 ag	.	.	.	-16.3%	-28.4%	.	-31.9%	.
PINK1 expr mod	.	.	.	-1.9%	4.1%[38.3 µM]	.	-0.2%	.
Giardia killer	.	.	.	.	-7.0	.	18.1	.
